Test results as given in patent EP4837910A1, “ISOXAZOLINE COMPOUND AND PREPARATION METHOD THEREFOR, HERBICIDAL COMPOSITION, AND USE” (dated 2026).

Assays:
[1] = tested on: Triticum aestivum; test: Pre-emergence test, crop damage (greenhouse, sprayed immediately after sowing); settings: Dosage 240 g a.i./ha, after 4 weeks in greenhouse, fresh weight control rate
[2] = tested on: Zea mays; test: as above; settings: Dosage 240 g a.i./ha, after 4 weeks in greenhouse, fresh weight control rate
[3] = tested on: Monocotyledonous and dicotyledonous weed; test: Pre-emergence test on weeds (greenhouse, sprayed immediately after sowing); settings: Dosage 240 g a.i./ha, after 4 weeks in greenhouse, fresh weight control rate
[4] = tested on: Monocotyledonous and dicotyledonous weed; test: Post-emergence test on weeds (greenhouse, spray tower); settings: after 3 weeks of cultivation in a greenhouse, fresh weight control rate

Row | SMILES | activity level of plant damage (growth control rate), Triticum aestivum [1] | activity level of plant damage (growth control rate), Zea mays [2] | activity level of plant damage (growth control rate), Descurainia sophia [3] | activity level of plant damage (growth control rate), Lolium multiflorum [3] | activity level of plant damage (growth control rate), Setaria viridis [3] | activity level of plant damage (growth control rate), Digitaria sanguinalis [3] | Echinochloa crus-galli, activity level of plant damage (growth control rate) ([4]; Dosage 240 g a.i./ha) | Avena fatua, activity level of plant damage (growth control rate) ([4]; Dosage 240 g a.i./ha) | Digitaria sanguinalis, activity level of plant damage (growth control rate) ([4]; Dosage 240 g a.i./ha) | Amaranthus retroflexus, activity level of plant damage (growth control rate) ([4]; Dosage 60 g a.i./ha) | Digitaria sanguinalis, activity level of plant damage (growth control rate) ([4]; Dosage 60 g a.i./ha) | Echinochloa crus-galli, activity level of plant damage (growth control rate) ([4]; Dosage 60 g a.i./ha) | Avena fatua, activity level of plant damage (growth control rate) ([4]; Dosage 120 g a.i./ha)
1 | C=CC1(C(=O)N[C@@H](C)C(=O)N(C)OC)CC(c2cccc(C(F)(F)F)c2)=NO1 (stereo partly drawn) | 1 (Level 1: growth control rate less than 10%) | 1 (Level 1: growth control rate less than 10%) | 6 (Level 6: growth control rate greater than or equal to 70% and less than 80%) | 9 | 6 (Level 6: growth control rate greater than or equal to 70% and less than 80%) |  |  |  |  |  |  |  | 
2 | C=C[C@]1(C(=O)N[C@@H](C)C(=O)NOC)CC(c2cc(C)cc(Cl)c2)=NO1 | 2 (Level 2: growth control rate greater than or equal to 10% and less than 20%) | 0 |  | 5 (Level 5: growth control rate greater than or equal to 50% and less than 70%) |  |  |  |  |  |  |  |  | 
3 | C=C[C@]1(C(=O)N[C@@H](C)C(=O)N(C)OCC(=O)OC)CC(c2cc(F)cc(F)c2)=NO1 | 2 (Level 2: growth control rate greater than or equal to 10% and less than 20%) | 1 (Level 1: growth control rate less than 10%) |  | 5 (Level 5: growth control rate greater than or equal to 50% and less than 70%) |  |  |  |  |  |  |  |  | 
4 | CC[C@]1(C(=O)N[C@@H](C)C(=O)N(C)OC)CC(c2cc(F)cc(C(F)(F)F)c2)=NO1 | 2 (Level 2: growth control rate greater than or equal to 10% and less than 20%) | 0 | 9 | 6 (Level 6: growth control rate greater than or equal to 70% and less than 80%) | 9 | 5 (Level 5: growth control rate greater than or equal to 50% and less than 70%) |  |  |  |  |  |  | 
5 | CC[C@]1(C(=O)N[C@@H](C)C(=O)N(C)OC)CC(c2cc(Cl)cc(Cl)c2)=NO1 | 1 (Level 1: growth control rate less than 10%) | 1 (Level 1: growth control rate less than 10%) |  | 9 | 9 | 9 |  |  |  |  |  |  | 
6 | C=C[C@]1(C(=O)N[C@@H](C)C(=O)NOCC(=C)C)CC(c2cc(F)cc(F)c2)=NO1 |  | 0 | 8 (Level 8: growth control rate greater than or equal to 90% and less than 100%) | 5 (Level 5: growth control rate greater than or equal to 50% and less than 70%) |  |  | 5 (Level 5: growth control rate greater than or equal to 50% and less than 70%) |  |  |  |  |  | 
7 | C=C(C)C1(C(=O)N[C@@H](C)C(=O)NOCC)CC(c2cc(F)cc(F)c2)=NO1 (stereo partly drawn) |  | 2 (Level 2: growth control rate greater than or equal to 10% and less than 20%) | 9 | 9 | 9 | 9 | 9 | 9 | 8 (Level 8: growth control rate greater than or equal to 90% and less than 100%) |  |  |  | 
8 | C=C(C)C1(C(=O)N[C@H](C(=O)NOCC)C(C)C)CC(c2cc(F)cc(F)c2)=NO1 (stereo partly drawn) |  | 1 (Level 1: growth control rate less than 10%) | 5 (Level 5: growth control rate greater than or equal to 50% and less than 70%) |  | 6 (Level 6: growth control rate greater than or equal to 70% and less than 80%) | 9 |  |  |  | 5 (Level 5: growth control rate greater than or equal to 50% and less than 70%) | 6 (Level 6: growth control rate greater than or equal to 70% and less than 80%) | 5 (Level 5: growth control rate greater than or equal to 50% and less than 70%) | 
9 | C=C[C@]1(C(=O)N[C@@H](C)C(=O)N(C)OC)CC(c2cc(F)cc(Cl)c2)=NO1 |  | 2 (Level 2: growth control rate greater than or equal to 10% and less than 20%) | 9 | 9 | 9 | 9 |  | 9 |  |  |  |  | 
10 | C=C(C)[C@@]1(C(=O)N[C@@H](C)C(=O)N(C)OC)CC(c2cc(Cl)cc(OC(F)(F)F)c2)=NO1 | 0 |  |  | 5 (Level 5: growth control rate greater than or equal to 50% and less than 70%) | 9 | 9 |  |  |  |  |  |  | 
11 | C=C(C)[C@]1(C(=O)N[C@@H](C)C(=O)N(CC)OC)CC(c2cc(F)cc(F)c2)=NO1 |  | 2 (Level 2: growth control rate greater than or equal to 10% and less than 20%) | 9 | 7 (Level 7: growth control rate greater than or equal to 80% and less than 90%) | 9 | 9 | 8 (Level 8: growth control rate greater than or equal to 90% and less than 100%) |  | 9 |  |  |  | 
12 | C=C(C)[C@]1(C(=O)N[C@@H](C)C(=O)N(CCOC)OCC)CC(c2cc(F)cc(F)c2)=NO1 |  | 1 (Level 1: growth control rate less than 10%) |  |  | 6 (Level 6: growth control rate greater than or equal to 70% and less than 80%) | 9 |  |  |  | 5 (Level 5: growth control rate greater than or equal to 50% and less than 70%) |  |  | 
13 | C=C(C)[C@]1(C(=O)N[C@@H](C)C(=O)NOC(C)(C)C)CC(c2cc(F)cc(F)c2)=NO1 |  | 2 (Level 2: growth control rate greater than or equal to 10% and less than 20%) | 5 (Level 5: growth control rate greater than or equal to 50% and less than 70%) | 9 | 9 | 9 |  |  |  |  | 8 (Level 8: growth control rate greater than or equal to 90% and less than 100%) | 8 (Level 8: growth control rate greater than or equal to 90% and less than 100%) | 
14 | C=C(C)[C@@]1(C(=O)N[C@@H](C)C(=O)N(CC)OC)CC(c2cc(F)cc(F)c2)=NO1 | 2 (Level 2: growth control rate greater than or equal to 10% and less than 20%) |  |  |  | 9 | 9 |  |  |  |  |  |  | 
15 | C=C[C@]1(C(=O)N[C@@H](C)C(=O)N(C)OC)CC(c2cc(Cl)cc(Cl)c2)=NO1 |  | 0 | 8 (Level 8: growth control rate greater than or equal to 90% and less than 100%) | 9 | 9 | 9 |  |  |  |  |  |  | 9
16 | C=C[C@]1(C(=O)N[C@@H](C)C(=O)N(C)OC)CC(c2cc(C)cc(F)c2)=NO1 | 2 (Level 2: growth control rate greater than or equal to 10% and less than 20%) |  | 8 (Level 8: growth control rate greater than or equal to 90% and less than 100%) | 9 | 9 | 9 |  | 6 (Level 6: growth control rate greater than or equal to 70% and less than 80%) |  |  |  |  | 
